PubChem BioAssay AID1461 (National Center for Advancing Translational Sciences (NCATS), 2008)
This is a selection; strong and weak results do not stand in their true shares. Inconclusive results are not listed. Active and inactive are the calls of the source. Calls follow the shape of the dose curve; as a rule, active = well fitted inhibition curve with a large enough effect; inconclusive = small, poorly fitted or top-dose-only effect, or effect the other way; inactive = no such curve, though single readings can be large or run the other way.

By UniProt entry, the sequences of proteins in these tests, tags left out.
UniProt Q6W5P4, whole entry: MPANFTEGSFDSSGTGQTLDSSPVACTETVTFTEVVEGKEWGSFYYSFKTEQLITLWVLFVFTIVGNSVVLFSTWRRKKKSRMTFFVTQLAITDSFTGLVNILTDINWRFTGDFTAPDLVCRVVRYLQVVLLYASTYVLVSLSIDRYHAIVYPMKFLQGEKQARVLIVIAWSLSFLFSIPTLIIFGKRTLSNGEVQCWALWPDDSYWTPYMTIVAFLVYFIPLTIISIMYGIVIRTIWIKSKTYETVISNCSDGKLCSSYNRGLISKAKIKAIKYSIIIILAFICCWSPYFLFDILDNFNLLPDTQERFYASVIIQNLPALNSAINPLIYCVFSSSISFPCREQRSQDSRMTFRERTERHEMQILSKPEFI

Target: Neuropeptide S receptor (Homo sapiens) (UniProt Q6W5P4)
Assay: qHTS Assay for Antagonists of the Neuropeptide S Receptor: cAMP Signal Transduction; also: nearly all actives have a fitted effect of over 50% in size
Details: CHO-NPSR cells, cAMP TR-FRET, antagonist mode; series mostly up to 38.3 µM; activity change, negative = inhibition: at the top concentration
% is scaled to controls: 0 for no effect and ±100 for the full control effect; potency is read from the fitted curve at half-maximal effect.

| SMILES | activity change, negative = inhibition | Potency |
| --- | --- | --- |
| CCN(CC)CCCOC(=O)C(O)(c1ccccc1)C1CCCCC1 (stereo not drawn) | inactive: -7.21% [at 46.1 µM] |  |
| CP(=O)(Nc1ccccc1)Oc1ccc(F)cc1 (stereo not drawn) | inactive: 1.54% [at 46.1 µM] |  |
| CCCCCOc1ccc(NP(C)(=O)Oc2ccc(Cl)cc2Cl)cc1 (stereo not drawn) | inactive: -57.9% |  |
| CCOC(=O)c1ccc(NP(C)(=O)Oc2ccc(F)cc2)cc1 (stereo not drawn) | inactive: 7.22% |  |
| COc1ccc(OP(C)(=O)Nc2ccc(SC(F)(F)F)cc2)cc1 (stereo not drawn) | inactive: -11.6% |  |
| O=C(OCCN1CCN(CCOCc2ccccc2)CC1)C(O)(c1ccccc1)c1ccccc1 | inactive: 7.25% |  |
| CP(=O)(Nc1ccccc1F)Oc1ccccc1 (stereo not drawn) | inactive: -18.2% [at 46.1 µM] |  |
| CC(C)c1ccc(OP(C)(=O)Nc2ccc(SC(F)(F)F)cc2)cc1 (stereo not drawn) | inactive: -31.9% |  |
| Cc1ccccc1NP(C)(=O)Nc1ccccc1C | inactive: 1.42% [at 46.1 µM] |  |
| CP(=O)(Nc1ccc(SC(F)(F)F)cc1)Oc1ccc(F)cc1 (stereo not drawn) | inactive: -5.72% |  |
| CCOP(C)(=S)SCC(=O)NC(C)(CC)C(=O)O (stereo not drawn) | inactive: 0.418% [at 46.1 µM] |  |
| O=[N+]([O-])c1ccc(OP2(=O)COCCO2)cc1 (stereo not drawn) | inactive: -18.6% |  |
| Cc1cc(-c2cccc3ccccc23)c(C)cn1.O=[N+]([O-])c1cc([N+](=O)[O-])c(O)c([N+](=O)[O-])c1 | inactive: 31.2% |  |
| COc1ccc(OP(C)(=O)Nc2cccc(Br)c2)cc1 (stereo not drawn) | inactive: -15% [at 46.1 µM] |  |
| CN(C)CCOC(=O)C(O)(c1ccccc1)C1CCCCC1 (stereo not drawn) | inactive: 23.7% [at 46.1 µM] |  |
| COc1ccc(NP(C)(=O)Oc2ccccc2OC)cc1 (stereo not drawn) | inactive: 12.8% |  |
| CCOC(=O)c1ccc(NP(C)(=O)Oc2ccc(Cl)cc2)cc1 (stereo not drawn) | inactive: -5.27% |  |
| CP(=O)(OC12CC3CC(CC(C3)C1)C2)OC12CC3CC(CC(C3)C1)C2 |  | active: 10 µM |
| CC(C)(C)c1ccc(OP(C)(=O)O)cc1 | inactive: -8.46% [at 46.1 µM] |  |
| COc1ccccc1OP(C)(=O)Nc1ccccc1Br (stereo not drawn) | inactive: -15% |  |
| CP(=O)(Nc1ccc(Cl)cc1)Oc1ccc(F)cc1 (stereo not drawn) | inactive: 0.672% [at 46.1 µM] |  |
| CN(C)C(=O)c1c([N+](=O)[O-])cc([N+](=O)[O-])cc1[N+](=O)[O-] | inactive: -7.51% |  |
| COc1ccc(OP(C)(=O)Nc2ccc(Br)cc2)cc1 (stereo not drawn) | inactive: 5.99% |  |
| CCN(CC)CC(O)COC(=O)C(O)(c1ccccc1)C1CCCCC1 (stereo not drawn) | inactive: 3.53% [at 46.1 µM] |  |
| N#[O+].[C-]#N.[C-]#N.[C-]#N.[C-]#N.[C-]#N.[Fe+2].[Na+].[Na+] | inactive: 3.44% [at 46.1 µM] |  |
| O=C(OCCCN1CCCC1)C(O)(c1ccccc1)C1CCCCC1 (stereo not drawn) | inactive: 17.1% |  |

| SMILES | activity change, negative = inhibition | Potency |
| --- | --- | --- |
| COc1ccccc1OP(C)(=O)Nc1c(C)n(C)n(-c2ccccc2)c1=O (stereo not drawn) | inactive: 1.22% [at 46.1 µM] |  |
| CCc1ccc(OP(C)(=O)Nc2cccnc2)cc1 (stereo not drawn) | inactive: 6.44% |  |
| CP(=O)(Oc1ccccc1)N1CCOC1=O (stereo not drawn) | inactive: -12.8% [at 46.1 µM] |  |
| O=[N+]([O-])c1cc([N+](=O)[O-])c(Nc2ccccn2)c([N+](=O)[O-])c1 | inactive: 30.3% |  |
| Cc1c(NP(C)(=O)Oc2ccc(C(C)C)cc2)c(=O)n(-c2ccccc2)n1C (stereo not drawn) | inactive: -6.45% [at 46.1 µM] |  |
| COc1ccccc1OP(C)(=O)Nc1ccc(C)cc1C (stereo not drawn) | inactive: -12.3% [at 46.1 µM] |  |
| CP(=O)(Nc1ccccn1)Oc1ccccc1 (stereo not drawn) | inactive: 6.65% [at 46.1 µM] |  |
| CCc1ccc(OP(C)(=O)O)cc1 | inactive: -0.848% [at 46.1 µM] |  |
| COc1ccccc1OP(C)(=O)Nc1ccc(Br)cc1 (stereo not drawn) | inactive: -2.58% |  |
| COc1ccc(OP(C)(=O)Nc2ccccn2)cc1 (stereo not drawn) | inactive: 3.17% [at 46.1 µM] |  |
| CN(C)CCOC(=O)C(O)(c1ccccc1)C1CCCC1 (stereo not drawn) | inactive: 8.71% [at 46.1 µM] |  |
| Cc1nc2ccc3ccccc3c2o1.O=[N+]([O-])c1cc([N+](=O)[O-])c(O)c([N+](=O)[O-])c1 | inactive: -2.73% [at 46.1 µM] |  |
| CP(=O)(OCCOc1ccccc1)OCCOc1ccccc1 | inactive: 0.901% |  |
| CP(=O)(Nc1ccc(Cl)cc1Cl)Oc1ccccc1 (stereo not drawn) | inactive: -10% |  |
| Cc1cc(C)cc(OP(C)(=O)Nc2cccc(C(F)(F)F)c2)c1 (stereo not drawn) | inactive: 19.3% |  |
| COc1ccccc1OP(C)(=O)Nc1ccc(C)c(C)c1 (stereo not drawn) | inactive: -11.9% [at 46.1 µM] |  |
| COc1ccc(OP(C)(=O)Nc2ccccc2Br)cc1 (stereo not drawn) | inactive: 27.5% |  |
| Cc1ccc(NP(C)(=O)Oc2ccccc2)c(C)c1 (stereo not drawn) | inactive: -18% [at 46.1 µM] |  |
| COc1ccccc1OP(C)(=O)Nc1ccc(C)cc1 (stereo not drawn) | inactive: 14.9% [at 46.1 µM] |  |
| CCOC(=O)c1ccc(NP(C)(=O)Oc2ccccc2)cc1 (stereo not drawn) | inactive: 2.96% |  |
| Cc1cc(C)cc(OP(C)(N)=O)c1 (stereo not drawn) | inactive: 22.9% |  |
| COc1ccc(OP(C)(=O)Nc2cccc(F)c2)cc1 (stereo not drawn) | inactive: -2.4% [at 46.1 µM] |  |
| COc1ccccc1OP(C)(=O)Nc1cc(Cl)ccc1C (stereo not drawn) | inactive: -2.79% |  |
| O=[N+]([O-])c1ccc2c(c1)C=Nc1ccccc1O2 | inactive: 12.5% |  |
| Cc1cccc(C)c1OP(C)(N)=O (stereo not drawn) | inactive: 15.5% |  |
| CC(C)(C)c1ccc(OP(C)(=O)Nc2ccc(SC(F)(F)F)cc2)cc1 (stereo not drawn) | inactive: -36.7% |  |

| SMILES | activity change, negative = inhibition | Potency |
| --- | --- | --- |
| CCN(CC)CCCOC(=O)C(O)(c1ccccc1)c1ccccc1 | inactive: 1.54% |  |
| CCOC(=O)c1ccc(NP(C)(=O)Oc2ccc(OC)cc2)cc1 (stereo not drawn) | inactive: 16% |  |
| CCOP(C)(=S)SCC(=O)NC(C)C(=O)O (stereo not drawn) | inactive: -8.75% [at 46.1 µM] |  |
| CP(=O)(Nc1ccccn1)Oc1ccc(Cl)cc1 (stereo not drawn) | inactive: 2.17% [at 46.1 µM] |  |
| CP(=O)(Oc1ccccc1)OC(c1ccccc1)C(F)(F)F (stereo not drawn) | inactive: -29.1% |  |
| Cc1cccc(C)c1OP(C)(=O)Nc1ccc(SC(F)(F)F)cc1 (stereo not drawn) | inactive: -10.8% |  |
| Cc1cc(C)cc(OP(C)(=O)Nc2ccc(SC(F)(F)F)cc2)c1 (stereo not drawn) | inactive: -25.5% |  |
| CCc1ccc(OP(C)(=O)N2CCN(c3ccc([N+](=O)[O-])cc3)CC2)cc1 (stereo not drawn) | inactive: -35.3% |  |
| CP(=O)(NC(=O)Nc1ccccc1)Oc1ccccc1 (stereo not drawn) | inactive: 14.1% [at 7.67 µM] |  |
| CP(=S)(Nn1cnnc1)Oc1ccccc1 (stereo not drawn) | inactive: -6.95% [at 46.1 µM] |  |
| CP(=O)(Nc1ccccc1Br)Oc1ccccc1 (stereo not drawn) | inactive: 0.194% |  |
| COc1ccccc1OP(C)(=O)Nc1ccccc1 (stereo not drawn) | inactive: 10.2% |  |
| CN1CCCCC1COC(=O)C1(O)c2ccccc2CCc2ccccc21 (stereo not drawn) | inactive: 13.8% |  |
| COc1ccccc1OP(C)(=O)Nc1c(C)cccc1C (stereo not drawn) | inactive: -7.57% [at 46.1 µM] |  |
| CP(=O)(Nc1ccc(SC(F)(F)F)cc1)Oc1ccccc1 (stereo not drawn) | inactive: 0.0538% |  |
| CCCOc1ccc(NP(C)(=O)Oc2ccc(Cl)cc2)cc1 (stereo not drawn) | inactive: -9.29% |  |
| O=[N+]([O-])c1cc([N+](=O)[O-])c(Nc2nnnn2CCO)c([N+](=O)[O-])c1 | inactive: 3.99% |  |
| Cc1nc2ccc3ccccc3c2s1.O=[N+]([O-])c1cc([N+](=O)[O-])c(O)c([N+](=O)[O-])c1 | inactive: -18.4% [at 46.1 µM] |  |
| O=[N+]([O-])c1cc([N+](=O)[O-])c(-n2nnc3ccccc32)c([N+](=O)[O-])c1 | inactive: 2.34% |  |
| Cc1ccc(C)c(NP(C)(=O)Oc2ccccc2)c1 (stereo not drawn) | inactive: -18.4% [at 46.1 µM] |  |
| CP(=O)(Nc1cccc(Br)c1)Oc1ccccc1 (stereo not drawn) | inactive: -6.04% |  |
| Cc1cc(C)cc(OP(C)(=O)Nc2ccccn2)c1 (stereo not drawn) | inactive: 6.63% [at 46.1 µM] |  |
| COc1ccccc1OP(C)(=O)Nc1cccc(Br)c1 (stereo not drawn) | inactive: -15.7% |  |
| CCOC(=O)c1ccc(NP(C)(=O)Oc2cc(C)cc(C)c2)cc1 (stereo not drawn) | inactive: -10.9% |  |
| Cc1cc(C)cc(OP(C)(=O)Nc2ccc(C)cc2C)c1 (stereo not drawn) | inactive: -6.78% [at 46.1 µM] |  |
| CC1=NCCc2c1[nH]c1ccccc21.O=[N+]([O-])c1cc([N+](=O)[O-])c(O)c([N+](=O)[O-])c1 | inactive: -41.5% |  |
